According to patent US10370360B2, “Small-molecule inhibitors targeting discoidin domain receptor 1 and uses thereof” (priority 2014, dated 2019):
pIC50: −log10 of the molar value.

The chains behind the UniProt entries cited, without tags or fusion partners. Residues count along the entry.
UniProt P10721, 26-976: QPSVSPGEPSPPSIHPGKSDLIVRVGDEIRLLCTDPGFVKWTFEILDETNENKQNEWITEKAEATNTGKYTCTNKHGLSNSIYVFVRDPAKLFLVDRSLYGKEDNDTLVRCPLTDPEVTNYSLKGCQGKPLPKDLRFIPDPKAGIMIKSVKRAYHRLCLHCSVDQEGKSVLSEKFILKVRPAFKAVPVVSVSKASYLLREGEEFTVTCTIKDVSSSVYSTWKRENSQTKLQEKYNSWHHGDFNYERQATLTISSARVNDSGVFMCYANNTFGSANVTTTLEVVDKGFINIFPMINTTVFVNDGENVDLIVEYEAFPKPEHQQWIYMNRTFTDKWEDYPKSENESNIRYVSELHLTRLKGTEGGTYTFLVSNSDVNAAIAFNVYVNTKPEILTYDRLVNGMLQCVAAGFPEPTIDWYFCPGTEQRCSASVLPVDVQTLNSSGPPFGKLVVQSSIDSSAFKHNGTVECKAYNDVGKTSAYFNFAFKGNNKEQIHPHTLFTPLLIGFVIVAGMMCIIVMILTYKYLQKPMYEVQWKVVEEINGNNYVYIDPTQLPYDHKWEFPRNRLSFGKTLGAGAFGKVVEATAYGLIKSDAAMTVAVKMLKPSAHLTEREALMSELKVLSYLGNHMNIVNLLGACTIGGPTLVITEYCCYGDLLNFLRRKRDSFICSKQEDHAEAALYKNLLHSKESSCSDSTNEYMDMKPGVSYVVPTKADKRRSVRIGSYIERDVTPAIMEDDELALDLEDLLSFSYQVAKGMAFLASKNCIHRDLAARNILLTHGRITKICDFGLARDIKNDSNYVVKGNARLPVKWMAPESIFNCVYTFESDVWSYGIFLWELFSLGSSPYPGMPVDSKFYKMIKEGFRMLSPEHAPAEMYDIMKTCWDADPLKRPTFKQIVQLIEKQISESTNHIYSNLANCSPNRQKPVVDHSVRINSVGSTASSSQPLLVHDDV

These compounds were tested against c-Kit (Homo sapiens (Human), UniProt P10721) (assay: FRET-based Z'-Lyte kinase assay, c-kit). Details: 300 μM ATP.
Format: biochemical

| pIC50 | SMILES |
| --- | --- |
| < 5.00 | CC1CN(c2cncnc2)Cc2cc(NC(=O)c3cc(CN4CCN(C)CC4)cc(C(F)(F)F)c3)ccc21 (stereo not drawn) [Example 2, N-(4-methyl-2-(pyrimidin-5-yl)-1,2,3,4-tetrahydroisoquinolin-7-yl)-3-((4-methylpiperazin-1-yl)methyl)-5-(trifluoromethyl)benzamide] |
| < 5.00 | C[C@@H]1CN(c2cncnc2)Cc2cc(NC(=O)c3cc(CN4CCN(C)CC4)cc(C(F)(F)F)c3)ccc21 [Example 39, (S)—N-(4-methyl-2-(pyrimidin-5-yl)-1,2,3,4-tetrahydroisoquinolin-7-yl)-3-((4-methylpiperazin-1-yl)methyl)-5-(trifluoromethyl)benzamide] |
| < 5.00 | C[C@H]1CN(c2cncnc2)Cc2cc(NC(=O)c3cc(CN4CCN(C)CC4)cc(C(F)(F)F)c3)ccc21 [Example 40, (R)—N-(4-methyl-2-(pyrimidin-5-yl)-1,2,3,4-tetrahydroisoquinolin-7-yl)-3-((4-methylpiperazin-1-yl)methyl)-5-(trifluoromethyl)benzamide] |
